# Data: patent US20240174727A1, “LONG-ACTING NATRIURETIC PEPTIDES AND USES THEREOF” (Eli Lilly and Company, priority 2022, published 2024)
# Biological target: T1, human NPRA (Homo sapiens, UniProt P16066)
# T1 construct: Full-Length cDNA Cloning and Generation of Cell Lines Overexpressing Natriuretic Peptide Receptors (NPRs); expressed in transfected cells; host or cells: Jump-in T-Rex HEK293 cells, pJTI R4 CMV-TO MCS pA vector, tetracycline induction
# T1 sequence (P16066 33-1061): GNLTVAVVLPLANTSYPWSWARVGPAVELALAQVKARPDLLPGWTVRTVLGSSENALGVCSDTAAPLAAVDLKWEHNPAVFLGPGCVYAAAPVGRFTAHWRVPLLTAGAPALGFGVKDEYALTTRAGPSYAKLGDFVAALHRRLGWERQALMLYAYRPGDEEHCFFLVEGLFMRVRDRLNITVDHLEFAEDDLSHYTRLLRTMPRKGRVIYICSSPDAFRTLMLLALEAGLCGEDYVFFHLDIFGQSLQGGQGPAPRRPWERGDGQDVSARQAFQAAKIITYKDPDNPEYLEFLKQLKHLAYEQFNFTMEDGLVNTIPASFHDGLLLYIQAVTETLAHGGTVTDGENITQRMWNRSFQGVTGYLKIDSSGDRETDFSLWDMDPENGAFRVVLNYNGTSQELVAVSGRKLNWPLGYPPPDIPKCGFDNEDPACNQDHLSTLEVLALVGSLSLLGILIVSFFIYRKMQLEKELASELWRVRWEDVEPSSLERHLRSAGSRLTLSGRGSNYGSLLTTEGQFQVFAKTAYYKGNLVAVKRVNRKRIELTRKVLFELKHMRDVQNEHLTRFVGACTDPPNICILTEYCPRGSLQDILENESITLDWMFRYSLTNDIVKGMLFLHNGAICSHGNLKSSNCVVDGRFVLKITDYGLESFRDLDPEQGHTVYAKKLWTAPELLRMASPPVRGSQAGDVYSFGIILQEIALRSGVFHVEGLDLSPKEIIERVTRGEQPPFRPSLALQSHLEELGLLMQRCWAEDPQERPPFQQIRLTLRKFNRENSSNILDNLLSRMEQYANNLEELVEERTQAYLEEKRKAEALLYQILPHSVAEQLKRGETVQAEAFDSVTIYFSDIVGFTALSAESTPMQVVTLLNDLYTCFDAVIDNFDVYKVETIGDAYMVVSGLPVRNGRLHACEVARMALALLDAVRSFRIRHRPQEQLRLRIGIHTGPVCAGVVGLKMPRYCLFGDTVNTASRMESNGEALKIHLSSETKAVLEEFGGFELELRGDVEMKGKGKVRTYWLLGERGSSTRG
# Experiment: Human NPRA cGMP activity assay (HTRF) in HEK293 cells overexpressing NPRA
# Assay type: cell-based
# Conditions: cGMP Assay (EC50, pM) w/Casein hNPRA, assay buffer with 0.1% casein
# Experimental: All sequences were verified by full-length sequencing performed by ACGT DNA Sequencing Services (Wheeling, IL). The target cDNA was cloned into pJTI R4 CMV-TO MCS pA vector and then co-transfected with pJT1R4 Int vector into Jump-in™ T-Rex™ HEK293 cells for mammalian inducible expression using Jump-in™ T-Rex™ HEK293 kit and Lipofectamine LTX and Plus Reagent following manufacturer's protocols, as briefly described below.
# Jump-in™ T-Rex™ HEK293 cells were plated in a BioCOAT® poly-D-lysine coated 6-well plate (Becton Dickinson, cat no. 354413) at 1 million cells/well in 2 mL culture medium and incubated for 18 h at 37° C. and 5% CO2 to 50-70% confluence. A cDNA mix was made in a 50 mL tube by adding 1.5 μg target cDNA, 1.5 μg pJT1R4 Int vector, 3 μL Plus Reagent, and 300 μL Opti-MEM I sequentially into the tube. A reagent mix was made in a separate 50 mL tube by adding 7.5 μL Lipofectamine LTX into 300 μL Opti-MEM I. The mixtures were incubated for 5 min at room temperature. The cDNA mix was then transferred into the reagent mix, mixed well, and incubated for additional 30 min at room temperature. A 500 μL of cDNA/Lipofectamine complex was then transferred to the wells of the cell plate in which the culture medium was changed to 2 mL of transfection medium containing DMEM with 4.5 g/L D-glucose supplemented with 10% FBS-HI and 20 mM HEPES. Transfected cells were cultured for 48 h in an incubator at 37° C. and 5% CO2. A subclone or pool from each overexpressing cell line was maintained in culture medium with the addition of 2 mg/mL G418 sulfate for the clone selection based on its built-in resistance to G418 sulfate for at least 3 weeks with medium changed every 2-3 days.
# NPRs were overexpressed in T-Rex™ HEK293 cells following the induction with 300 ng/mL tetracycline in culture medium for 48 h. Induced cell lines in an exponential growth phase were treated with 0.05% trypsin-EDTA for a few seconds at room temperature, harvested in cell medium containing FBS to neutralize the trypsin, counted, and cryopreserved at the density of 2 million cells/mL in cell preservation solution containing FBS-HI with 5% DMSO. Cryopreserved cells were stored at −80° C. for a few days prior to transferring to a liquid nitrogen tank. Induced cell lines were then used for suspension assays to measure the activity of polypeptides to stimulate cGMP production in cGMP assays or for the preparation of cell membranes to measure the binding activity of polypeptides in competitive radioligand binding assays, as described below.
# Test polypeptides were added starting at 10 μM concentration and at 10-fold decreasing concentrations to obtain 8-point concentration-response curves (i.e., 10 μM to 1 pM). The quantity of cGMP generated was detected using HTRF® technology and normalized to maximum amount produced by 100 nM amidated rat ANP and the minimum amount produced by assay buffer. Detailed steps are outlined below.
# Stock solutions of test polypeptides (2 mM) dissolved in DMSO were first diluted 100-fold in assay buffer containing HBSS with Ca^2+ and Mg^2+, 5 mM HEPES, 0.5 mM IBMX, and 0.1% BSA or 0.1% casein (pH 7.4). The polypeptides were further serially diluted in 1:10 dilution steps in assay buffer containing 0.1% BSA or 0.1% casein to generate 8-point 2× working stock solutions ranging from 20 μM to […].
# A 10 μL cell suspension containing 4000 cells was plated in Costar® half-area white opaque 96-well plates (Corning, cat no. 3693). Then 10 μL of assay buffer (basal activity), 200 nM of amidated rat ANP (maximum activity) or 2× working stock solutions of test polypeptides were transferred into the plate. Final concentration of DMSO in each well was 0.5%. The plate was shaken for 15 sec and then incubated for 40 min at room temperature.
# The cGMP generated was measured using cGMP kit following the manufacturer's directions, as described below.
row,Structure (SMILES),EC50 [pM]
1,CC[C@H](C)[C@@H]1NC(=O)[C@H](CCCNC(=N)N)NC(=O)[C@H](CC(=O)O)NC(=O)[C@H]([C@@H](C)CC)NC(=O)[C@H](CCCCN)NC(=O)CNC(=O)CNC(=O)[C@H](Cc2ccccc2)NC(=O)[C@@H](NC(=O)[C@H](CO)NC(=O)[C@H](CO)NC(=O)[C@H](CCCNC(=N)N)NC(=O)CNC(=O)[C@H](CCCCN)NC(=O)[C@H](CCC(=O)O)NC(=O)[C@H](CCCCN)NC(=O)[C@H](CCC(=O)O)NC(=O)[C@H](CCCCN)NC(=O)[C@H](CCC(=O)O)NC(=O)CC[C@H](NC(=O)CCCCCCCCCCCCCCCCCCC(=O)O)C(=O)O)CSSC[C@@H](C(=O)N2CCC[C@H]2C(=O)N[C@@H](CO)C(=O)N[C@@H](Cc2ccccc2)C(=O)N[C@@H](CCCNC(=N)N)C(=O)N[C@@H](Cc2c[nH]cn2)C(=O)N[C@@H](CCCCN)C(=O)NCC(=O)N2CCC[C@H]2C(=O)N[C@@H](CO)C(=O)N[C@@H](CO)C(=O)NCC(=O)N[C@@H](C)C(=O)N2CCC[C@H]2C(=O)N2CCC[C@H]2C(=O)N2CCC[C@H]2C(=O)N[C@@H](CO)C(N)=O)NC(=O)CNC(=O)[C@H](CC(C)C)NC(=O)CNC(=O)[C@H](CO)NC(=O)[C@H](Cc2ccc(O)cc2)NC(=O)[C@H](Cc2c[nH]cn2)NC(=O)CNC1=O [Example 47],299
2,CC[C@H](C)[C@@H]1NC(=O)[C@H](CCCNC(=N)N)NC(=O)[C@H](CC(=O)O)NC(=O)[C@H]([C@@H](C)CC)NC(=O)[C@H](CCCNC(=N)N)NC(=O)CNC(=O)CNC(=O)[C@H](Cc2ccccc2)NC(=O)[C@@H](NC(=O)[C@H](CO)NC(=O)[C@H](CO)NC(=O)[C@H](CCCNC(=N)N)NC(=O)[C@H](CCC(=O)O)NC(=O)[C@H](CCCCN)NC(=O)[C@H](CCC(=O)O)NC(=O)CNC(=O)[C@H](CCCCN)NC(=O)[C@H](CCC(=O)O)NC(=O)[C@H](CCCCN)NC(=O)[C@H](CCC(=O)O)NC(=O)[C@H](CCCCN)NC(=O)[C@H](CCC(=O)O)NC(=O)CC[C@H](NC(=O)CCCCCCCCCCCCCCCCCCC(=O)O)C(=O)O)CSSC[C@@H](C(=O)N2CCC[C@H]2C(=O)N[C@@H](CO)C(=O)N[C@@H](Cc2ccccc2)C(=O)N[C@@H](CCCNC(=N)N)C(=O)N[C@@H](Cc2c[nH]cn2)C(=O)NCC(=O)NCC(=O)N2CCC[C@H]2C(=O)N[C@@H](CO)C(=O)N[C@@H](CO)C(=O)NCC(=O)N[C@@H](C)C(=O)N2CCC[C@H]2C(=O)N2CCC[C@H]2C(=O)N2CCC[C@H]2C(=O)N[C@@H](CO)C(N)=O)NC(=O)CNC(=O)[C@H](CC(C)C)NC(=O)CNC(=O)[C@H](CO)NC(=O)[C@H](Cc2ccc(O)cc2)NC(=O)[C@H](Cc2c[nH]cn2)NC(=O)CNC1=O [Example 49],299
3,CC[C@H](C)[C@@H]1NC(=O)[C@H](CCCNC(=N)N)NC(=O)[C@H](CC(=O)O)NC(=O)[C@H]([C@@H](C)CC)NC(=O)[C@H](CCCNC(=N)N)NC(=O)CNC(=O)CNC(=O)[C@H](Cc2ccccc2)NC(=O)[C@@H](NC(=O)[C@H](CO)NC(=O)[C@H](CO)NC(=O)[C@H](CCCNC(=N)N)NC(=O)CNC(=O)[C@H](CCCCN)NC(=O)[C@H](CCC(=O)O)NC(=O)CNC(=O)[C@H](CCCCN)NC(=O)[C@H](CCC(=O)O)NC(=O)[C@H](CCCCN)NC(=O)[C@H](CCC(=O)O)NC(=O)[C@H](CCCCN)NC(=O)[C@H](CCC(=O)O)NC(=O)CC[C@H](NC(=O)CCCCCCCCCCCCCCCCCCC(=O)O)C(=O)O)CSSC[C@@H](C(=O)N2CCC[C@H]2C(=O)N[C@@H](CO)C(=O)N[C@@H](Cc2ccccc2)C(=O)N[C@@H](CCCNC(=N)N)C(=O)N[C@@H](Cc2c[nH]cn2)C(=O)N[C@@H](CCCCN)C(=O)NCC(=O)NCC(=O)N2CCC[C@H]2C(=O)N[C@@H](CO)C(=O)N[C@@H](CO)C(=O)NCC(=O)N[C@@H](C)C(=O)N2CCC[C@H]2C(=O)N2CCC[C@H]2C(=O)N2CCC[C@H]2C(=O)N[C@@H](CO)C(N)=O)NC(=O)CNC(=O)[C@H](CC(C)C)NC(=O)CNC(=O)[C@H](CO)NC(=O)[C@H](Cc2ccc(O)cc2)NC(=O)[C@H](Cc2c[nH]cn2)NC(=O)CNC1=O [Example 50],614
4,CC[C@H](C)[C@@H]1NC(=O)[C@H](CCCNC(=N)N)NC(=O)[C@H](CC(=O)O)NC(=O)[C@H]([C@@H](C)CC)NC(=O)[C@H](CCCNC(=N)N)NC(=O)CNC(=O)CNC(=O)[C@H](Cc2ccccc2)NC(=O)[C@@H](NC(=O)[C@H](CO)NC(=O)[C@H](CO)NC(=O)[C@H](CCCNC(=N)N)NC(=O)CCNC(=O)[C@H](CCCCN)NC(=O)[C@H](CCC(=O)O)NC(=O)CCOCCOCCOCCOCCOCCOCCOCCOCCOCCOCCOCCOCCNC(=O)CNC(=O)[C@H](CCCCN)NC(=O)[C@H](CCC(=O)O)NC(=O)[C@H](CCCCN)NC(=O)[C@H](CCC(=O)O)NC(=O)[C@H](CCCCN)NC(=O)[C@H](CCC(=O)O)NC(=O)CC[C@H](NC(=O)CCCCCCCCCCCCCCCCCCC(=O)O)C(=O)O)CSCSC[C@@H](C(=O)N2CCC[C@H]2C(=O)N[C@@H](CO)C(=O)N[C@@H](Cc2ccccc2)C(=O)N[C@@H](CCCNC(=N)N)C(=O)N[C@@H](Cc2c[nH]cn2)C(=O)NCC(=O)NCC(=O)N[C@@H](CCCCN)C(=O)N[C@@H](CO)C(=O)N[C@@H](CO)C(=O)NCC(=O)N[C@@H](C)C(=O)N2CCC[C@H]2C(=O)N2CCC[C@H]2C(=O)N2CCC[C@H]2C(=O)N[C@@H](CO)C(N)=O)NC(=O)CNC(=O)[C@H](CC(C)C)NC(=O)CNC(=O)[C@H](CO)NC(=O)[C@H](Cc2ccc(O)cc2)NC(=O)[C@H](Cc2c[nH]cn2)NC(=O)CNC1=O [Example 77],1270
